Experimental properties from OPERA 2.9

Values as listed in the OPERA 2.9 repository of K. Mansouri.

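The numbers are reported measurements, compiled and curated for the OPERA QSAR suite. A listed value is a point estimate from one report or more. Method and conditions are not stated for these values. A value may pool stereoisomers or salt forms, and the file does not say which form was measured. Some entries may be limits or estimates that an upstream database listed as plain numbers.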

The melting point is given in degrees Celsius.
The boiling point refers to atmospheric pressure (760 mmHg), by the definition of the set.
The octanol-water partition coefficient is given as log10; larger values mean a more lipophilic compound.
Water solubility is log10 of mol/L, nominally at 25 °C; higher is more soluble.
Vapor pressures (log10 mmHg) refer to near room temperature, 15 to 30 °C; higher is more volatile.
The unbound fraction in human plasma runs from 0 (all bound) to 1 (all free).
Intrinsic clearance (human, µL/min per 10^6 hepatocytes): higher is faster turnover, and 0 stands for none detected.
"n/a" marks a cell with nothing listed here.

mp (°C) | BP (°C) | log Kow | log solubility (log10 mol/L) | log VP (log10 mmHg) | plasma fu | intrinsic clearance (µL/min/10^6 cells) | SMILES
n/a | n/a | 3.8 | -3.51 | -2.992 | n/a | n/a | C=C(CC(=O)OCCCC)C(=O)OCCCC
n/a | n/a | 0.858 | 0.121 | -3.974 | n/a | n/a | CC(C)(CO)COC(=O)C(C)(C)CO
n/a | n/a | 3.1 | -2.754 | n/a | n/a | n/a | CCCCOc1cc(C(=O)OCCN(CC)CC)ccc1N
100 | 305 | 3.38 | -5.918 | -2.87 | n/a | n/a | CC1=CC(C)C(C2OCC3COC(C4CCC(C)=CC4C)N32)CC1 (centres undefined)
n/a | n/a | n/a | n/a | n/a | 0.0608 | 35.3 | COc1ccc(S(=O)(=O)N2C(=O)[C@@](c3ccccc3OC)(N3C[C@H](O)C[C@H]3C(=O)N(C)C)c3cc(Cl)ccc32)c(OC)c1
n/a | n/a | 4.3 | -3.12 | -0.833 | n/a | n/a | CCCCC(CC)C1OCCO1 (centres undefined)
76.55 | n/a | 9.63 | n/a | -11.89 | n/a | n/a | CCCCC(CC)COCC(O)COc1ccc(-c2nc(-c3ccc(C)cc3C)nc(-c3ccc(C)cc3C)n2)c(O)c1 (centres undefined)
78.8 | n/a | 1.98 | -3.443 | -5.663 | n/a | n/a | COc1cc(Br)c(CCC#N)cc1OC
217 | n/a | 0.88 | -3.879 | n/a | n/a | n/a | CN(C)C(=O)Nc1ccc(Cc2ccc(NC(=O)N(C)C)cc2)cc1
n/a | n/a | n/a | n/a | -14.03 | 0.03 | n/a | COc1cccc2c1C(=O)c1c(O)c3c(c(O)c1C2=O)C[C@@](O)(C(C)=O)C[C@@H]3O[C@H]1C[C@H](N)[C@H](O)[C@H](C)O1
-33 | n/a | n/a | -7.378 | n/a | n/a | n/a | CCCCCCCC/C=C\CCCCCCCC(=O)OCC(COC(=O)CCCCCCC/C=C\CCCCCCCC)(COC(=O)CCCCCCC/C=C\CCCCCCCC)COC(=O)CCCCCCC/C=C\CCCCCCCC
n/a | n/a | 1.38 | -3.292 | -5.71 | n/a | n/a | CC(C)(C)c1ccc([I+]c2ccc(C(C)(C)C)cc2)cc1.F[P-](F)(F)(F)(F)F
-8.9 | n/a | n/a | n/a | -7.815 | n/a | n/a | CCCCCCCC/C=C\CCCCCCCC(=O)NCCCN(C)C
212.4 | n/a | 1.17 | -3.194 | -5.888 | n/a | n/a | CC1=NS(=O)(=O)c2ccccc21
208.8 | n/a | 4.8 | -8.124 | n/a | n/a | n/a | N#Cc1ccc(C=Cc2ccc(C=Cc3cccc(C#N)c3)cc2)cc1
54.7 | n/a | 4.19 | -5.309 | -2.721 | n/a | n/a | C=CC(=O)OCCN(C)S(=O)(=O)C(F)(F)C(F)(F)C(F)(F)C(F)(F)F
n/a | n/a | 2.75 | n/a | -11.66 | n/a | n/a | CC(C)(C)c1cc(CCC(=O)O)cc(-n2nc3ccccc3n2)c1O
-43 | n/a | n/a | -3.702 | -5.846 | n/a | n/a | CC(CC(=O)NCCO)CC(C)(C)C (centres undefined)
-10.04 | n/a | 4.56 | n/a | n/a | n/a | n/a | CCCCOC(=O)[C@@H]1CCCC[C@@H]1C(=O)OCc1ccccc1 (relative stereo)
113 | n/a | 1.7 | -2.465 | -5.471 | n/a | n/a | CS(=O)(=O)c1ccc(C=O)c(C(F)(F)F)c1
n/a | n/a | 0.415 | n/a | 0.189 | n/a | n/a | C=CN(C)C(C)=O
104.3 | n/a | n/a | -6.285 | -7.509 | 0.01115 | 5.87 | CC(C)(C)CC(C)(C)c1ccc(O)c(-n2nc3ccccc3n2)c1
n/a | n/a | 1.4 | -4.693 | n/a | n/a | n/a | O=C1NC(=O)c2cccc3cccc1c23
-23 | n/a | n/a | -5.878 | -1.315 | n/a | n/a | C=C(Cl)C(=O)OCCC(F)(F)C(F)(F)C(F)(F)C(F)(F)C(F)(F)C(F)(F)F
n/a | n/a | n/a | 0.498 | 0.681 | n/a | n/a | CC(O)COC(C)(C)C (centres undefined)
n/a | n/a | 0.85 | -1.901 | n/a | n/a | n/a | COc1ccc(NC(=O)CC(C)=O)cc1
n/a | 543 | n/a | n/a | -8.369 | n/a | n/a | CCCCCCCCCCCCCC[N+](C)(C)CC(=O)[O-]

Excerpt, the opening 3 entries:

SMILES | mp (°C) | BP (°C) | log Kow | log solubility (log10 mol/L) | log VP (log10 mmHg) | plasma fu | intrinsic clearance (µL/min/10^6 cells)
C=C(CC(=O)OCCCC)C(=O)OCCCC | n/a | n/a | 3.8 | -3.51 | -2.992 | n/a | n/a
CC(C)(CO)COC(=O)C(C)(C)CO | n/a | n/a | 0.858 | 0.121 | -3.974 | n/a | n/a
CCCCOc1cc(C(=O)OCCN(CC)CC)ccc1N | n/a | n/a | 3.1 | -2.754 | n/a | n/a | n/a